Kd data for one substance are collected here from article PMC8236918.

The assay deals with MBP-tagged full-length CYRI-A (mouse) (UniProt Q8BHZ0). The assay is described as follows: SPR; MBP-tagged CYRI immobilised on Sensor chip CM5; purified untagged RAC1 Q61L titrated at different concentrations; steady-state responses fitted to a 1:1 binding model.

Regarding “untagged full-length RAC1 Q61L (from UniProt P63000 1-192) (natural protein; other documents disagree on this pair)”, the equilibrium dissociation constant (Kd) (usually the constant that tells how readily two partners part at equilibrium) was found to be 13 µM.
